Test results taken from PubChem BioAssay AID651999 (Sanford-Burnham Center for Chemical Genomics, 2013).
Only a part is listed here, and it is no random draw. Calls of active or inactive are those of the source.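 How the source made its calls: active means pattern-corrected inhibition above about 35%, with an unprinted fluorescence ratio check between 0.5 and 1.5 (limit read from the data, passing the limit was not always enough); inactive means the rest.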

Chains of the proteins cited; added tags and fusions are not shown.
UniProt Q92905, whole entry: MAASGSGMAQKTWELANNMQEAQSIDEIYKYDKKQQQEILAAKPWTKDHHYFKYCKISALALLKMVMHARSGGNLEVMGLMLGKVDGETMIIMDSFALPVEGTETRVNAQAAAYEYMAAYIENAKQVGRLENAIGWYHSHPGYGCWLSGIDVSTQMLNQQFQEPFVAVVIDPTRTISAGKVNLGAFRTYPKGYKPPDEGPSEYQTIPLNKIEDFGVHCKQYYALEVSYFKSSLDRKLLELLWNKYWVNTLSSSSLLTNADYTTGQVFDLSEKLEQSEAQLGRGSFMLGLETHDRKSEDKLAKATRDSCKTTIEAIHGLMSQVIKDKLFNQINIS

target: COP9 signalosome complex subunit 5 (Homo sapiens) (UniProt Q92905); test: inhibitors of CSN-mediated cullin deneddylation, primary screen, biochemical, fluorescence polarization, uHTS (AID 651999); settings: Purified CSN, SCF-Nedd8-OG deneddylation, at 12.5 µM, hits give high values;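 further: 0% = enzyme with substrate and 100% = substrate without enzyme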
In short: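 Detection – fluorescence polarization · System – HEK293T-derived human Csn5 enzyme · Controls – substrate-only high control, full reaction low control · Timing – 90 min, room temperature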

| SMILES | inhibition |
| --- | --- |
| CP(=O)(Nc1cccc(Br)c1)Oc1ccccc1 (centres undefined) | inactive: 3.56% |
| Cc1cc(C)cc(OP(C)(=O)Nc2ccccn2)c1 (centres undefined) | inactive: 3.05% |
| Cc1ccc(C)c(NP(C)(=O)Oc2ccccc2)c1 (centres undefined) | inactive: -1.82% |
| COc1ccccc1OP(C)(=O)Nc1cccc(Br)c1 (centres undefined) | inactive: 2.26% |
| Cc1cc(C)cc(OP(C)(=O)Nc2ccc(C)cc2C)c1 (centres undefined) | inactive: -3.02% |
| CCOC(=O)c1ccc(NP(C)(=O)Oc2cc(C)cc(C)c2)cc1 (centres undefined) | inactive: -6.9% |
| CC1=NCCc2c1[nH]c1ccccc21.O=[N+]([O-])c1cc([N+](=O)[O-])c(O)c([N+](=O)[O-])c1 | inactive: 1.38% |
| O=C(O)c1cccc(Nc2c([N+](=O)[O-])cc([N+](=O)[O-])cc2[N+](=O)[O-])c1 | inactive: 0.93% |
| COc1ccccc1OP(C)(=O)Nc1c(C)cccc1C (centres undefined) | inactive: 2.18% |
| CN1CCCCC1COC(=O)C1(O)c2ccccc2CCc2ccccc21 (centres undefined) | inactive: -7.19% |
| CP(=O)(Nc1ccc(SC(F)(F)F)cc1)Oc1ccccc1 (centres undefined) | inactive: 0.95% |
| CCCOc1ccc(NP(C)(=O)Oc2ccc(Cl)cc2)cc1 (centres undefined) | inactive: 2.21% |
| COc1ccc(-c2ccccn2)cc1.O=[N+]([O-])c1cc([N+](=O)[O-])c(O)c([N+](=O)[O-])c1 | inactive: -6.69% |
| O=[N+]([O-])c1cc([N+](=O)[O-])c(Nc2nnnn2CCO)c([N+](=O)[O-])c1 | inactive: 3.5% |
| CC1=C2N=C(C=C3N=C(C(C)=C4[N-][C@@](C)([C@@H]5N=C1[C@](C)(CCC(=O)NC[C@@H](C)OP(=O)([O-])O[C@H]1[C@@H](O)[C@@H](n6cnc7cc(C)c(C)cc76)O[C@@H]1CO)[C@H]5CC(N)=O)[C@@](C)(CC(N)=O)[C@@H]4CCC(N)=O)[C@@](C)(CC(N)=O)[C@@H]3CCC(N)=O)C(C)(C)[C@@H]2CCC(N)=O.[C-]#N.[Co+3] | inactive: 6.33% |
| CCOC(=O)C(CC)C1=NC(C)(C)Cc2ccccc21.O=[N+]([O-])c1cc([N+](=O)[O-])c(O)c([N+](=O)[O-])c1 (centres undefined) | inactive: 0.3% |
| O=[N+]([O-])c1cc([N+](=O)[O-])c(-c2cnn(-c3ccccc3)c2)c([N+](=O)[O-])c1 | inactive: 101% |
| Cc1nc2ccc3ccccc3c2s1.O=[N+]([O-])c1cc([N+](=O)[O-])c(O)c([N+](=O)[O-])c1 | inactive: 8.05% |
| O=[N+]([O-])c1cc([N+](=O)[O-])c(-n2nnc3ccccc32)c([N+](=O)[O-])c1 | inactive: -1.57% |
| CN(Cc1cccnc1)C(=O)COc1ccc(Cl)c(Cl)c1.O=[N+]([O-])c1cc([N+](=O)[O-])c(O)c([N+](=O)[O-])c1 | inactive: -4.61% |
| CCOP(C)(=S)SCC(=O)NC(C)C(=O)O (centres undefined) | inactive: -0.85% |
| CCOC(=O)c1ccc(NP(C)(=O)Oc2ccc(OC)cc2)cc1 (centres undefined) | inactive: 1.36% |
| O=[N+]([O-])c1cc([N+](=O)[O-])c(O)c([N+](=O)[O-])c1.c1ccc(Oc2ccncc2)cc1 | inactive: -2.86% |
| CP(=O)(Nc1ccccn1)Oc1ccc(Cl)cc1 (centres undefined) | inactive: -4.39% |
| Cc1ccc(Nc2c([N+](=O)[O-])cc([N+](=O)[O-])cc2[N+](=O)[O-])cc1 | inactive: -3.22% |
| Cc1cccc(C)c1OP(C)(=O)Nc1ccc(SC(F)(F)F)cc1 (centres undefined) | inactive: -1.75% |
| CP(=O)(Nc1ccc(SC(F)(F)F)cc1)Oc1ccc(Cl)cc1 (centres undefined) | inactive: -1.15% |

| SMILES | inhibition |
| --- | --- |
| CP(=O)(Oc1ccccc1)OC(c1ccccc1)C(F)(F)F (centres undefined) | inactive: -4.58% |
| CCc1ccc(OP(C)(=O)N2CCN(c3ccc([N+](=O)[O-])cc3)CC2)cc1 (centres undefined) | inactive: 5.86% |
| CP(=O)(NC(=O)Nc1ccccc1)Oc1ccccc1 (centres undefined) | inactive: 2.31% |
| Cc1cc(C)cc(OP(C)(=O)Nc2ccc(SC(F)(F)F)cc2)c1 (centres undefined) | inactive: 3.25% |
| CP(=S)(Nn1cnnc1)Oc1ccccc1 (centres undefined) | inactive: -3.71% |
| COc1ccccc1OP(C)(=O)Nc1ccccc1 (centres undefined) | inactive: 2.25% |
| CP(=O)(Nc1ccccc1Br)Oc1ccccc1 (centres undefined) | inactive: 5.48% |
| CCOC(=O)c1ccc(NP(C)(=O)Oc2ccccc2)cc1 (centres undefined) | inactive: 3.85% |
| COc1ccccc1OP(C)(=O)Nc1ccc(C)cc1 (centres undefined) | inactive: 0.75% |
| Cc1ccc(NP(C)(=O)Oc2ccccc2)c(C)c1 (centres undefined) | inactive: -5.9% |
| COc1ccccc1OP(C)(=O)Nc1cc(Cl)ccc1C (centres undefined) | inactive: -5.4% |
| COc1ccc(OP(C)(=O)Nc2cccc(F)c2)cc1 (centres undefined) | inactive: -1.25% |
| Cc1cc(C)cc(OP(C)(N)=O)c1 (centres undefined) | inactive: -5.59% |
| O=[N+]([O-])c1cc([N+](=O)[O-])c(Nc2cccnc2)c([N+](=O)[O-])c1 | inactive: 5.67% |
| CC(C)(C)c1ccc(OP(C)(=O)Nc2ccc(SC(F)(F)F)cc2)cc1 (centres undefined) | inactive: -2.66% |
| Cc1cccc(C)c1OP(C)(N)=O (centres undefined) | inactive: -2.49% |
| O=[N+]([O-])c1ccc2c(c1)C=Nc1ccccc1O2 | inactive: 0.59% |
| COc1ccccc1-c1ccccn1.O=[N+]([O-])c1cc([N+](=O)[O-])c(O)c([N+](=O)[O-])c1 | inactive: 2.77% |
| CCN(CC)CCCOC(=O)C(O)(c1ccccc1)c1ccccc1 | inactive: 1.45% |
| O=[N+]([O-])c1cc([N+](=O)[O-])c(Nc2ccccn2)c([N+](=O)[O-])c1 | inactive: -0.6% |
| Cc1c(NP(C)(=O)Oc2ccc(C(C)C)cc2)c(=O)n(-c2ccccc2)n1C (centres undefined) | inactive: -4.79% |
| CCc1ccc(OP(C)(=O)O)cc1 | inactive: -0.28% |
| CP(=O)(Nc1ccccn1)Oc1ccccc1 (centres undefined) | inactive: -0.82% |
| COc1ccccc1OP(C)(=O)Nc1ccc(C)cc1C (centres undefined) | inactive: -5.54% |
| COc1ccccc1OP(C)(=O)Nc1ccc(Br)cc1 (centres undefined) | inactive: 0.9% |
| CN(C)CCOC(=O)C(O)(c1ccccc1)C1CCCC1 (centres undefined) | inactive: 4.82% |
| COc1ccc(OP(C)(=O)Nc2ccccn2)cc1 (centres undefined) | inactive: -0.86% |
